The record followed here is ChEMBL document CHEMBL1137885, “P4 and P1' optimization of bicycloproline P2 bearing tetrapeptidyl alpha-ketoamides as HCV protease inhibitors” (Bioorg Med Chem Lett, 2004).

pKi: −log10 of the molar value.

The assay concerns the target NS3 (Hepatitis C virus, UniProt A3EZJ3). Kind of assay: Inhibition of HCV NS3 protease in the pNA based inhibition assay. Details: species or system Hepacivirus hominis.

The pKi is −log10 of the Ki, conventionally taken in molar units. Lower therefore signals a high Ki. With `CCCC(NC(=O)[C@@H]1[C@H]2CCC[C@H]2CN1C(=O)[C@@H](NC(=O)[C@@H](NC(=O)c1cnccn1)C(C)C)C(C)(C)C)C(=O)C(=O)NC1CC1` (stereo partly specified), the pKi was 7.10.
